# Binding of CDR-mutated scFvs to a peptide of the spike HR2 region

From the AlphaSeq antibody data of Li et al. 2023 (doi:10.1038/s41467-023-39022-2), copy in the FLAb collection.

Target peptide (SARS-CoV-2 spike, HR2 region): PDVDLGDISGINAS

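The starting antibody came from a phage panning campaign against this peptide. The variants were designed computationally from a first round of random CDR variants and then made and measured. Group labels follow the data file (Ctrl: baseline library sampled from a position-specific scoring matrix, with some repeated check sequences; Rand: our label for a block that the file lists under HC and that is probably the random mutants of the ten best first-round binders; GP: Gaussian process model; HC: hill climbing; Gen: genetic algorithm; Gibbs: Gibbs sampling; a sequence that several methods proposed may carry one label only). The scFvs were displayed on barcoded MATa yeast, the peptide on MATalpha yeast. Mating (16 h, 30 °C) was followed by selection of diploids and sequencing of their barcodes. Scores were corrected for input abundance and mapped to Kd with protein pairs of known affinity run in the same pool. Each pool was mated in six replicate cultures.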

Ab-14 is the parent antibody, in scFv form: VH, then a (GGGGS)3 linker, then VL. The heavy chain is unchanged in all variants.
VH: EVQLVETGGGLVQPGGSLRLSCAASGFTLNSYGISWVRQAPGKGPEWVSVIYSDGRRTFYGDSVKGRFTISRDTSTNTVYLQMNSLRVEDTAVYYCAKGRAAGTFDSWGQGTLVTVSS
VL: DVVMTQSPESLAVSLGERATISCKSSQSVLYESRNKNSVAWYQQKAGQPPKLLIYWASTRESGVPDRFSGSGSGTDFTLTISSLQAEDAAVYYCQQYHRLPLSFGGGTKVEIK

Substitutions are numbered in sequence along the VL above, starting at 1 (not Kabat).
Variants here have at most six changes.
Values are apparent Kd, the geometric mean of the replicates that gave a signal; lower means stronger binding.
An entry "no signal" has no value in the source: the pair was not observed among the diploids in any replicate. This suggests poor binding but is not conclusive.
A sequence measured in both rounds can read differently, since the two assays cover different ranges.
In the paper, a design with two or fewer of six values counts as a poor binder.
Empty control strains, which show no peptide, gave a signal in 4% of pairings with all light chain designs; the median was 430 nM and 95% of these signals were weaker than 38 nM. No background was subtracted.

changes	group	Kd	detected
S25L/S26P/V29W/W56E/T59Q	GP_Gen	700 pM	6 of 6
S25L/V29M/L30D/W56D	GP_Gen	870 pM	6 of 6
V29W/W56H/S62Q	GP_HC	13 nM	6 of 6
S33D/R34N/W56D/S62L	Ctrl	980 pM	6 of 6
L30D/Y31G/S33Q/W56D/A57I	GP_HC	970 pM	6 of 6
S25F/S33G	Ctrl	6.8 nM	6 of 6
S26Q/V29W/W56N/T59Q	GP_Gen	1.0 nM	6 of 6
L30F/Y31D/W56E/R99Y/L102I	Ctrl	680 nM	3 of 6
S25L/S38N/W56H/E61M	GP_Gen	860 pM	6 of 6
S26Q/V29Q/L30E/W56H	GP_HC	1.8 nM	6 of 6
S25Q/V39I/W56D/A57L/R99E	Rand	14 nM	6 of 6
S25V/Q27P/Y31G/S33M/W56N/E61R	GP_Gibbs	no signal	0 of 6
S25L/S26P/V29M/W56S/T59Q	GP_Gen	480 pM	6 of 6
S25F/S26E/N35T/W56N/R99Q	GP_HC	1.9 nM	6 of 6
S25V/V29D/S38N/W56D	GP_Gen	290 pM	6 of 6
Q27W/V29W/W56G/T59A/S62V	GP_HC	810 pM	6 of 6
S25V/V29Y/W56D	GP_Gen	360 pM	6 of 6
Y31H/R34W/N37T/W56K/S62D	Ctrl	1.9 nM	6 of 6
S25F/V29W/W56D	GP_Gen	760 pM	6 of 6
S25L/S38N/W56E/S62M	GP_Gen	870 pM	6 of 6
S25L/K36C/W56N	GP_Gen	2.7 nM	6 of 6
S26G/Q27W/S28G/S38H/W56G	GP_HC	1.7 nM	6 of 6
K24Q/L30Q/R34I	Ctrl	13 nM	3 of 6
S25Y/L30V/E32D/N35F/S103F	Ctrl	99 nM	3 of 6
S25L/V29W/Y31M/W56E/E61Q	GP_HC	700 pM	6 of 6
S25F/V29T/Q96V/L100M	Ctrl	no signal	0 of 6
S25L/N35Q/W56D	GP_Gen	380 pM	6 of 6
S33D/K36F/S38N	Ctrl	12 nM	6 of 6
S25I/S38A/W56D	GP_Gen	330 pM	6 of 6
S25L/L30G/W56N	GP_Gen	4.4 nM	6 of 6
L30E/W56H/S62H	Ctrl	12 nM	6 of 6
S25F/L30D/Y31F/W56D	GP_HC	390 pM	6 of 6
S25F/N35T/W56D/R99Q	GP_HC	2.4 nM	6 of 6
S25Q	Ctrl	86 nM	6 of 6
S25V/V29W/W56N/Q96D	GP_Gen	590 pM	6 of 6
S25T/S26Y/Q27V/V29H/W56Q/T59E	GP_Gibbs	740 pM	6 of 6
S26P/Q27I/V29F/W56E	GP_HC	300 pM	6 of 6
S25A/S26F/V29W/W56G/S103I	GP_HC	1.3 nM	6 of 6
Q27E/W56N	Ctrl	6.6 nM	6 of 6
R34K/K36T/S103Q	Ctrl	85 nM	2 of 6
S25I/Y31M/K36C/W56D	GP_HC	900 pM	6 of 6
S25I/V29W/W56N/E61L	GP_Gen	2.1 nM	6 of 6
K24H/Q27P/L30Q/W56N	GP_HC	800 pM	6 of 6
S26L/V29W/W56H/S62Q	GP_HC	3.4 nM	6 of 6
S25L/Q27M/W56D/T59Q	GP_Gen	310 pM	6 of 6
S25L/V29N/N35M/W56N/E61M	GP_Gen	800 pM	6 of 6

Again, the first 2 entries without any signal:

changes,group,Kd,detected
S25V/Q27P/Y31G/S33M/W56N/E61R,GP_Gibbs,no signal,0 of 6
S25F/V29T/Q96V/L100M,Ctrl,no signal,0 of 6